IC50 data for 1 compound are collected here from patent US4657931A, “N-(acyldipeptidyl)-aminoglycols” (G. D. Searle & Co., priority 1985, dated 1987).

Protein sequences, listed by entry. Tags and fused reporters are not part of them. Residues count along the entry.
UniProt P00797, 67-406 limits assumed: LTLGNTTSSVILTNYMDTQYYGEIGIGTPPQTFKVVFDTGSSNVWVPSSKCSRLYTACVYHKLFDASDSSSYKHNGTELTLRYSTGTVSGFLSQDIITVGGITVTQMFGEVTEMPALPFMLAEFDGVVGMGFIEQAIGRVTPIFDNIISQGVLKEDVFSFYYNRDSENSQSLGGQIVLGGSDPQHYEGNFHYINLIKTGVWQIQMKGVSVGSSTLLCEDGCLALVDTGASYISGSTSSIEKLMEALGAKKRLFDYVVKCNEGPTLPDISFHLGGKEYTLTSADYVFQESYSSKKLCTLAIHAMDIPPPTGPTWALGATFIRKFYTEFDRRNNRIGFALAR

The assay concerns the target human renin (Homo sapiens, UniProt P00797). The assay is described as follows: Human Renin Test (angiotensin I by radioimmunoassay). The format is biochemical. The note with it: read-out: IC50, human renin inhibition (reference standards); human plasma as angiotensinogen source, 2 h, 37° C., pH 7.5.

Regarding `CC(C)C[C@H](NC(=O)[C@H](Cc1c[nH]cn1)NC(=O)[C@H](Cc1ccccc1)NC(=O)[C@@H]1CCCN1C(=O)[C@H](Cc1c[nH]cn1)NC(=O)[C@@H]1CCCN1)C(=O)N[C@@H](Cc1ccccc1)C(=O)N[C@H](C(=O)N[C@@H](Cc1ccc(O)cc1)C(=O)O)C(C)C`, the IC50 amounted to 6 µM.
